According to patent publication US8846567B2, “Active compound combinations having insecticidal and acaricidal properties” (priority 2009, dated 2014):

Assays:
Myzus persicae = conditions: in vivo
From the text: (§1) The expected action for a given combination of two active compounds can be calculated according to S. R. Colby, Weeds 15 (1967), 20-22, as follows:
(§2) If the actual insecticidal or acaricidal kill rate exceeds the calculated value, the kill of the combination is superadditive, i.e. a synergistic effect is present. In this case, the actually observed kill rate must exceed the value calculated using the above formula for the expected kill rate (E).
(§3) • Solvents: 78 parts by weight of acetone 1.5 parts by weight of dimethylformamide • Emulsifier: 0.5 part by weight of alkylaryl polyglycol ether
(§4) To produce a suitable preparation of active compound, 1 part by weight of active compound is mixed with the stated amount of solvent and emulsifier, and the concentrate is diluted with emulsifier-containing water to the desired concentration.
Cabbage leaves (Brassica oleracea) which are heavily infested by the green peach aphid (Myzus persicae) are treated by spraying with the active compound preparation of the desired concentration.
After the desired period of time, the kill in % is determined 100% means that all of the aphids have been killed; 0% means that none of the aphids have been killed. The kill rates determined are entered into Colby's formula (see above).

Phaedon cochleariae = conditions: in vivo
From the text: as §1, §2, §3, §4
Cabbage leaves (Brassica oleracea) are treated by spraying with the active ingredient formulation of the desired concentration and populated with larvae of the mustard beetle (Phaedon cochleariae) while the leaves are still moist.
After the desired period of time, the kill in % is determined 100% means that all beetle larvae have been killed; 0% means that none of the beetle larvae have been killed. The kill rates determined are entered into Colby's formula (see above).

triazophos
0%: Kill in % after 6d (Myzus persicae) | Kill In % after 2d (Phaedon cochleariae) | Kill In % after 6d (Phaedon cochleariae)
